Apparent affinities of Ab-95 variants for a coronavirus HR2 peptide

Source: Engelhart et al. 2022 (doi:10.1038/s41597-022-01779-4), MIT Lincoln Laboratory and A-Alpha Bio; data file from the FLAb repository.

Target: peptide PDVDLGDISGINAS, taken from heptad repeat 2 (HR2) of SARS-CoV-2 spike.

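The parent was found by panning a naive human phage display library on the peptide. Library AAYL52 holds single substitutions and randomly drawn double and triple substitutions in the CDRs. Affinity was read by AlphaSeq, a pooled yeast mating assay with surface-displayed partners. Binding brings cells together so that they mate, and sequencing counts the barcode pairs among the diploids. Scores were corrected for input abundance and mapped to Kd with protein pairs of known affinity run in the same pool. Each pool was mated in three replicate cultures.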

Ab-95 is the parent antibody, in scFv form: VH, then three GGGGS repeats, then VL. The heavy chain is unchanged in all variants.
VH: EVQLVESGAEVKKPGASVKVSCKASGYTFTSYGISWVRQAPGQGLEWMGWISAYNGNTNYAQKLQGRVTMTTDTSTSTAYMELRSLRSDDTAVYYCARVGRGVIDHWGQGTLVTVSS
VL: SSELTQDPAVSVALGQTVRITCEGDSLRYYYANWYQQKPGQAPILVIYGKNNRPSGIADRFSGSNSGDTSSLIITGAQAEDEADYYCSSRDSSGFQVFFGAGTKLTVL

Positions count from residue 1 of the parent VL; S55R puts R in place of S. Numbers give log10(Kd / nM), so 0 is 1 nM and 3 is 1 µM. Smaller is tighter. A mean of the replicates is given; it leaves out those without a signal. A pair that was not seen in any replicate is written "no signal"; this usually means weak binding, but a binder can also be missed.

{"changes": "S55R/V97P", "mean, log10 nM": "no signal", "replicates with signal": "0 of 3"}
{"changes": "R28E/K50F", "mean, log10 nM": "3.33", "replicates with signal": "3 of 3"}
{"changes": "G24Y/S88A/G94N", "mean, log10 nM": "4.33", "replicates with signal": "1 of 3"}
{"changes": "P54L/R90N/Q96P", "mean, log10 nM": "5.81", "replicates with signal": "1 of 3"}
{"changes": "E23K/P54S/F95G", "mean, log10 nM": "2.85", "replicates with signal": "3 of 3"}
{"changes": "Y29L/R53T/Q96P", "mean, log10 nM": "3.52", "replicates with signal": "2 of 3"}
{"changes": "D25C/R28I/K50C", "mean, log10 nM": "3.71", "replicates with signal": "2 of 3"}
{"changes": "N52K/S55N/F98N", "mean, log10 nM": "3.82", "replicates with signal": "2 of 3"}
{"changes": "D25F/N52W", "mean, log10 nM": "4.28", "replicates with signal": "1 of 3"}
{"changes": "G24D/Y30W/N33Y", "mean, log10 nM": "no signal", "replicates with signal": "0 of 3"}
{"changes": "N33I/N51H/D91T", "mean, log10 nM": "3.50", "replicates with signal": "3 of 3"}
{"changes": "L27R/Y29R/Y31S", "mean, log10 nM": "3.26", "replicates with signal": "3 of 3"}
{"changes": "R28H/A32M/G94R", "mean, log10 nM": "4.00", "replicates with signal": "2 of 3"}
{"changes": "S26V/S89L/F95T", "mean, log10 nM": "3.49", "replicates with signal": "2 of 3"}
{"changes": "N33T/N52T/V97Y", "mean, log10 nM": "no signal", "replicates with signal": "0 of 3"}
{"changes": "S26F/L27P/P54C", "mean, log10 nM": "3.52", "replicates with signal": "3 of 3"}
{"changes": "L27D/Y31H/A32Y", "mean, log10 nM": "3.29", "replicates with signal": "3 of 3"}
{"changes": "E23N/Y30R/V97F", "mean, log10 nM": "3.15", "replicates with signal": "3 of 3"}
{"changes": "Y31M/N51A/S88V", "mean, log10 nM": "3.08", "replicates with signal": "3 of 3"}
{"changes": "D25S/S55N/G94M", "mean, log10 nM": "2.66", "replicates with signal": "3 of 3"}
{"changes": "S26T/R28T/N51W", "mean, log10 nM": "no signal", "replicates with signal": "0 of 3"}
{"changes": "Y29I/Y31M/S55Q", "mean, log10 nM": "4.41", "replicates with signal": "3 of 3"}
{"changes": "N52M/S89I/F98C", "mean, log10 nM": "1.79", "replicates with signal": "3 of 3"}
{"changes": "A32Q/P54E/G94K", "mean, log10 nM": "5.62", "replicates with signal": "1 of 3"}
{"changes": "N33L/K50P/Q96G", "mean, log10 nM": "4.72", "replicates with signal": "1 of 3"}
{"changes": "E23R/A32R/S89P", "mean, log10 nM": "4.67", "replicates with signal": "1 of 3"}
{"changes": "R28G/Y30T/Y31T", "mean, log10 nM": "1.41", "replicates with signal": "3 of 3"}
{"changes": "G24V/S93L/V97A", "mean, log10 nM": "3.45", "replicates with signal": "1 of 3"}
{"changes": "S26I/L27M/G94P", "mean, log10 nM": "4.30", "replicates with signal": "2 of 3"}

Extract of 2 entries:

changes	mean, log10 nM	replicates with signal
N52K/S55N/F98N	3.82	2 of 3
R28H/A32M/G94R	4.00	2 of 3

In this assay the parent's reference entry averaged 2.31; its copy inside this library read 2.25. Empty control strains, which show no peptide, gave a signal in 28% of pairings with library AAYL52; the median was 3.91 and 95% of these signals were weaker than 2.90. No background was subtracted.